Measurements as given in PubChem BioAssay AID2098 (Broad Institute, 2009).
This is a selection; strong and weak results do not stand in their true shares. Active and inactive are the calls of the source.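 How the source made its calls: active means more than half of replicate wells show activity change below -50%, luminescence cut by over half; inconclusive means some wells, but at most half, below -50%; inactive means no replicate well below -50%.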

Experiment: blocking HSF1-driven luciferase expression – cell-based, NIH3T3, luminescence, primary screen (AID 2098);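 further: luciferase reports HSF-1 transcriptional activity via heat shock element; 0% = median of DMSO wells and -100% = zero luminescence signal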
Conditions: NIH3T3-HGL HSE-luciferase, MG132-induced, luminescence 8 h; active compounds read low; screened at 7.5 µM (by protocol)
In the case of `COc1ccccc1OP(C)(=O)Nc1cccc(Br)c1` (stereo not given), the activity change, negative = inhibition is reported as inactive: -25.7%.
For `Cc1cc(C)cc(OP(C)(=O)Nc2ccc(C)cc2C)c1` (stereo not given), the activity change, negative = inhibition was inactive: -1.54%.
For `CCOC(=O)c1ccc(NP(C)(=O)Oc2cc(C)cc(C)c2)cc1` (stereo not given), the activity change, negative = inhibition was inactive: 1.87%.
For `Cc1cc(C)cc(OP(C)(=O)Nc2ccccn2)c1` (stereo not given), the activity change, negative = inhibition was inactive: 9.39%.
With `CP(=O)(Nc1cccc(Br)c1)Oc1ccccc1` (stereo not given) the activity change, negative = inhibition was inactive: 4.75%.
For `Cc1ccc(C)c(NP(C)(=O)Oc2ccccc2)c1` (stereo not given), the activity change, negative = inhibition was inactive: -3.04%.
For `CCN(CC)CCCOC(=O)C(O)(c1ccccc1)c1ccccc1`, the activity change, negative = inhibition was inactive: 7.64%.
In the case of `O=[N+]([O-])c1cc([N+](=O)[O-])c(Nc2cccnc2)c([N+](=O)[O-])c1`, the activity change, negative = inhibition is reported as inactive: 6.44%.
For `Cc1cccc(C)c1OP(C)(N)=O` (stereo not given), the activity change, negative = inhibition was inactive: -1.82%.
For `CC(C)(C)c1ccc(OP(C)(=O)Nc2ccc(SC(F)(F)F)cc2)cc1` (stereo not given), the activity change, negative = inhibition was inactive: 11%.
With `O=[N+]([O-])c1ccc2c(c1)C=Nc1ccccc1O2` the activity change, negative = inhibition was inactive: -7.27%.
In the case of `CCOC(=O)c1ccc(NP(C)(=O)Oc2ccccc2)cc1` (stereo not given), the activity change, negative = inhibition is reported as inactive: 6.36%.
For `Cc1ccc(NP(C)(=O)Oc2ccccc2)c(C)c1` (stereo not given), the activity change, negative = inhibition was inactive: -2.01%.
With `COc1ccccc1OP(C)(=O)Nc1ccc(C)cc1` (stereo not given) the activity change, negative = inhibition was inactive: 0.693%.
With `COc1ccc(OP(C)(=O)Nc2cccc(F)c2)cc1` (stereo not given) the activity change, negative = inhibition was inactive: -2.48%.
With `COc1ccccc1OP(C)(=O)Nc1cc(Cl)ccc1C` (stereo not given) the activity change, negative = inhibition was inactive: 1.35%.
For `Cc1cc(C)cc(OP(C)(N)=O)c1` (stereo not given), the activity change, negative = inhibition was inactive: -2.32%.
In the case of `CP(=S)(Nn1cnnc1)Oc1ccccc1` (stereo not given), the activity change, negative = inhibition is reported as inactive: -6.21%.
In the case of `COc1ccccc1OP(C)(=O)Nc1ccccc1` (stereo not given), the activity change, negative = inhibition is reported as inactive: -3.46%.
With `CP(=O)(Nc1ccccc1Br)Oc1ccccc1` (stereo not given) the activity change, negative = inhibition was inactive: 1.77%.
For `CP(=O)(Oc1ccccc1)OC(c1ccccc1)C(F)(F)F` (stereo not given), the activity change, negative = inhibition was inactive: -0.163%.
For `Cc1cccc(C)c1OP(C)(=O)Nc1ccc(SC(F)(F)F)cc1` (stereo not given), the activity change, negative = inhibition was inactive: 5.4%.
With `CP(=O)(Nc1ccc(SC(F)(F)F)cc1)Oc1ccc(Cl)cc1` (stereo not given) the activity change, negative = inhibition was inactive: -0.169%.
In the case of `Cc1cc(C)cc(OP(C)(=O)Nc2ccc(SC(F)(F)F)cc2)c1` (stereo not given), the activity change, negative = inhibition is reported as inactive: 5.7%.
For `CP(=O)(NC(=O)Nc1ccccc1)Oc1ccccc1` (stereo not given), the activity change, negative = inhibition was inactive: -4.19%.
With `CCc1ccc(OP(C)(=O)N2CCN(c3ccc([N+](=O)[O-])cc3)CC2)cc1` (stereo not given) the activity change, negative = inhibition was inactive: -0.957%.
For `CCOP(C)(=S)SCC(=O)NC(C)C(=O)O` (stereo not given), the activity change, negative = inhibition was inactive: -6.26%.
With `CCOC(=O)c1ccc(NP(C)(=O)Oc2ccc(OC)cc2)cc1` (stereo not given) the activity change, negative = inhibition was inactive: -18.7%.
For `O=[N+]([O-])c1cc([N+](=O)[O-])c(O)c([N+](=O)[O-])c1.c1ccc(Oc2ccncc2)cc1`, the activity change, negative = inhibition was inactive: -4.49%.
In the case of `CP(=O)(Nc1ccccn1)Oc1ccc(Cl)cc1` (stereo not given), the activity change, negative = inhibition is reported as inactive: -5.99%.
